## Binding of CDR-mutated scFvs to a peptide of the spike HR2 region

Data: MIT Lincoln Laboratory AlphaSeq set, Li et al. 2023, doi:10.1038/s41467-023-39022-2, as distributed in FLAb.

Binding partner: SARS-CoV-2 spike HR2 peptide, sequence PDVDLGDISGINAS.

Parent: Ab-14, a human scFv built as VH, three GGGGS repeats, VL. Only the CDRs of the light chain vary.
VH: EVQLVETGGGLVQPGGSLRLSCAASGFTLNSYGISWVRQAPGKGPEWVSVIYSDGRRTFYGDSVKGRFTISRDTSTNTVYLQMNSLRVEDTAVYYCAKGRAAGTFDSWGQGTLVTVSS
VL: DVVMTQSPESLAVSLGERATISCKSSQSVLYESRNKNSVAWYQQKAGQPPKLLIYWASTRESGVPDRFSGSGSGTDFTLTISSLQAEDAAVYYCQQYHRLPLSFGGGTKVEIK

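Phage display of a naive human antibody library on the peptide gave the parent. This is the validation round: designs drawn from the data on random variants, tested in the same kind of assay. Group labels follow the data file (Ctrl: baseline library sampled from a position-specific scoring matrix, with some repeated check sequences; En: ensemble of fine-tuned language models; GP: Gaussian process model; HC: hill climbing; Gen: genetic algorithm; Gibbs: Gibbs sampling; a sequence that several methods proposed may carry one label only). Affinity was read by AlphaSeq, a pooled yeast mating assay with surface-displayed partners. Binding brings cells together so that they mate, and sequencing counts the barcode pairs among the diploids. Each replicate has its own calibration line, from reference interactions of the BCL2 family. The assay was run in six technical replicates.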

Variants are written as CDR1, CDR2 and CDR3 of the light chain (limits as in the source). Parent: KSSQSVLYESRNKNSVA, WASTRES, QQYHRLPLS.
Each Kd is an estimate from the mating assay, the geometric mean of the replicates in which the pair was seen; lower is stronger.
"no signal" marks a missing value. The strain was present, yet no cells mated with the target were sequenced in any replicate, which points to weak or no binding.
Three control strains display no target. For all light chain designs, 4% of the pairings with them gave a signal, with a median of 430 nM and one signal in twenty below 38 nM, so weak values seen in few replicates may be background. For each scFv, signals with the empty controls are counted beside the result.

Kd (apparent),detected,control signals,CDR-L1,CDR-L2,CDR-L3,group
100 nM,1/6,1/18,HLSLRLSYGNMLNKAVA,EVQARVY,QQYARLPLL,En_Gibbs
1.0 nM,6/6,1/18,QLEVFPLQAGSTTQAIA,DASHRTP,QQYSRLPLV,En_Gibbs
1.4 nM,6/6,3/18,KLSQSELYESRNKNSVA,EASTRCS,QQYHRLPLS,GP_Gen
11 nM,6/6,0/18,MISDLTYLGLRNVNSVA,DLTMRGN,QQYDRLPLS,En_HC
1.5 nM,6/6,0/18,TLGDVTRMESNKKASIA,DMSNRAD,QQYHRLPLS,En_HC
2.9 nM,6/6,0/18,KVFQSMLYEQRNQNSVA,SASTREN,QQYHRLPLS,GP_Gibbs
220 nM,1/6,2/18,MVSQLMLWGLHAKNSIA,EAVMRLN,QQYDRLPLM,En_Gen
61 nM,5/6,1/18,MVGQGLMGESRAKNSIA,QASMRFD,QQYHRLPLI,En_HC
4.7 nM,6/6,0/18,KITNTMRFEQKNSNNIA,EVTTRSK,QQYVRLPLA,En_Gen
2.4 nM,6/6,2/18,ALSMSDLMESRNWNSVA,HASTREE,QQYHRLPLS,GP_Gibbs
1.4 nM,6/6,0/18,KESQSMIYESRNKNSVA,GASTRES,QQYHRLPLS,GP_HC
1.3 nM,6/6,1/18,KLPQSELYESRNKNSVA,NASQREE,QQYHRLPLS,GP_Gen
2.3 nM,6/6,1/18,KVSQSAPYEDRCFNNVA,HASQRES,QQYHRLPLS,GP_Gibbs
16 nM,6/6,0/18,KLSMLTEMEHVNRNSVA,ELVTRMS,QQYNRLPLS,En_Gen
920 pM,6/6,0/18,KVSPSMLYESRNKNSVA,NASTRES,QQYHRLPLS,GP_Gen
470 pM,6/6,1/18,KMSQSWLYESRNKNSVA,GASFRES,QQYHRLPLS,GP_HC
4.5 nM,6/6,2/18,KSGQSVLYESRNLNSVA,AASTRES,QQYHRLPLS,Ctrl
1.8 nM,6/6,0/18,MISQSFLIGMKAKNSVA,QTSTREE,QQYDRLPLS,En_HC
540 pM,6/6,0/18,KLSQSVLFEWRNKNSVA,DASTRES,QQYHRLPLS,GP_HC
110 nM,1/6,1/18,KLLDYEYGTWAMNSAIA,NAALESD,QQYDRLPLT,En_Gibbs
no signal,0/6,3/18,SLAESMHMESRNKNSVA,DNSTRES,QHYHRLPLS,En_HC
690 pM,6/6,2/18,KISQAYLGEDRNKNSVA,NANTRES,QQYHRLPLS,GP_Gibbs
23 nM,3/6,0/18,KITGMWTFESHERNNIA,EESTRED,QSYHRLPLS,En_HC
1.0 nM,6/6,2/18,KLSSVTGHMSMAKNNVA,EMETREK,QQYNRLPLA,En_Gen
78 nM,1/6,0/18,KSSQSVVYESRNKNSVA,EASTRYS,QQYHCLPLS,Ctrl
210 nM,1/6,0/18,KHSQSVEYESRDKNSVA,MASTRMS,QQYHRLPLS,GP_Gibbs
92 nM,4/6,1/18,KLTKSQYNWTSHYQAVA,EQNMRAT,QSYYRLPFS,En_Gibbs
14 nM,6/6,0/18,IVSQLMLWGMHAKNSIA,EAQTRVN,QQYDRLPLF,En_Gen
8.3 nM,6/6,0/18,KSSDGVLYESRNKNSVA,AASTRES,QQYHRLPLS,Ctrl
66 nM,6/6,1/18,TLYGLSNSMSKNKNSVA,EMTTREK,QQYDRLPLF,En_Gen
no signal,0/6,1/18,MISSVMGINNMYNSSVA,QAEEREQ,QQYDRLPLS,En_Gen
8.5 nM,6/6,0/18,KLLQTVMNGTRNRNNVA,HMTTRED,QQYHRLPLS,En_HC
41 nM,5/6,0/18,SIQFFTENDAEWGDSIA,DVSATTA,QQYHRLPLA,En_Gibbs
32 nM,6/6,2/18,KLSQSVLYESGNKNSVA,DASTRES,YQYHRLPSS,GP_HC
30 nM,3/6,1/18,KSSQSVLYESRNKNSVA,YASTRES,QGYHRLPLR,Ctrl
1.4 nM,6/6,1/18,KLSMITGHMQVEKNNVA,EMETREN,QQYNRLPLS,En_Gen
18 nM,4/6,0/18,KSSQSDLYESPNTNSVA,NASTRES,QQYHRLYLS,Ctrl
27 nM,6/6,1/18,MISQLYNMGSFAINSVA,QASLRNE,QQYDRLPLA,En_Gen
2.1 nM,6/6,1/18,KVSQSVLYEQRNKNSVA,SASTRES,QQYHRLPLS,GP_Gen
2.0 nM,6/6,1/18,KVQQWQLYESRMKNAVA,NASTRCD,QQYHRLPLS,GP_Gibbs
16 nM,6/6,1/18,HISMSVGMTQFNKNSVA,ENSTREN,QQYDRLPLS,En_HC
7.8 nM,6/6,0/18,GILSQMDGPTEYKENIA,NGTERLP,QQYQRLPLT,En_Gibbs
1.4 nM,6/6,1/18,KSSISYLGEERNKNSVA,EASTRES,QQYHRLPLS,GP_HC
970 pM,6/6,0/18,HMKDEPGLGPQTYSSVA,HAEIREP,QQYYRLPLM,En_Gibbs
27 nM,4/6,0/18,HISQMVMYGSCMKNNVA,QVSTREE,QQYHRLPLS,En_HC
92 nM,4/6,1/18,KFPQGVLYESRNKNSVA,GASVRES,QQYHRLPLS,GP_HC
1.3 nM,6/6,0/18,KFSQSVLYESRQKNSVA,NASTRES,QQYHRLPLS,GP_Gen
2.4 nM,6/6,1/18,KSSQSFLYESRNKNSVA,GASTRES,QDYHRLPLS,GP_HC
300 pM,6/6,2/18,KLSGSNLYESRNKNSVA,EASTRES,QQYHRLPLS,GP_Gen
no signal,0/6,1/18,KQIQSVLYESRNKNSVA,WASTRES,QQYHRLPLS,Ctrl
1.0 nM,6/6,0/18,KLSSSHLYEERMDNSVA,SASQREM,QQYHRLPLS,GP_Gibbs
6.3 nM,6/6,0/18,QIAETFMQVGIHANNIA,NATVRPA,QQYLRLPLM,En_Gibbs
3.5 µM,2/6,0/18,KLSSFHQVESINKSNVA,EMVTREN,QQYDRLPLS,En_HC
760 pM,6/6,0/18,KFQQSWLYESRNKNSVA,NASQRLS,QQYHRLPLS,GP_Gen
7.4 nM,6/6,0/18,MAYGGDMLESATRNSVA,NAETRED,QDYHRLPLS,En_HC
7.8 nM,6/6,0/18,HITYGMQVMGRHMESIA,QAEERAK,QQYDRLPLE,En_Gen
4.6 nM,6/6,0/18,QLMQVGGYESNNKNSIA,DLRTREH,QQYHRLPLS,En_HC
2.2 nM,6/6,0/18,TVSQVHEMLSHKKNSVA,DMNTRES,QQYDRLPLS,En_HC
5.1 nM,6/6,1/18,KLDGSDNYESRNKNSVA,EASERES,QAYHRLPLS,GP_Gibbs
4.9 nM,6/6,1/18,SLFFNDDQLQEESNNIA,HASLRSV,QQYMHLPLV,En_Gibbs
1.6 nM,6/6,1/18,KSSISYLYESQNKNSVA,EASTRES,QQYHRLPLS,GP_HC
240 pM,6/6,0/18,KLQQSVLYESRNKNNVA,GASTRES,QQYHRLPLS,GP_Gen
19 nM,6/6,0/18,KWKQSGLYESRNANSVA,WASTRES,QQYHQLPLS,Ctrl
1.7 nM,6/6,2/18,KLVQSWLYESRNKNSVA,NASQRLS,QQYHRLPLS,GP_Gen
1.0 nM,6/6,0/18,KFQQSELYEKRNQNSVA,SASQRLS,QQYHRLPLS,GP_Gibbs
8.1 nM,6/6,2/18,NFSQMVLTGTTLRNSVA,HASTREE,QQYHRLPLI,En_HC
4.8 nM,6/6,3/18,QIGGLLNFESSKINNVA,QMETRVN,QQYDRLPLS,En_Gen
2.3 nM,6/6,1/18,NIYQAMHTLMQARNNVA,DVTERND,QQYFRLPLS,En_Gen

The last 4 entries again:

CDR-L1,CDR-L2,CDR-L3,group,Kd (apparent),detected,control signals
KFQQSELYEKRNQNSVA,SASQRLS,QQYHRLPLS,GP_Gibbs,1.0 nM,6/6,0/18
NFSQMVLTGTTLRNSVA,HASTREE,QQYHRLPLI,En_HC,8.1 nM,6/6,2/18
QIGGLLNFESSKINNVA,QMETRVN,QQYDRLPLS,En_Gen,4.8 nM,6/6,3/18
NIYQAMHTLMQARNNVA,DVTERND,QQYFRLPLS,En_Gen,2.3 nM,6/6,1/18

Values of this round are not directly comparable with the first-round values of the same sequences.
The authors' rule: three or more of the six replicates give a measured affinity, fewer mean a poor binder.
Of ten entries with the parent sequence, four were seen in most replicates (averages 2.2 nM to 240 nM), three in one and three in none, so single entries are noisy.